Measurements from patent publication US20030118983A1, “Rapid screening procedure for inflammation mediators” (priority 2000, published 2003).

Experiments:
PMNs [1] = assay: Heme protein effect on DCFH oxidation in unstimulated, LPS and TNFα-, and PMA-stimulated PMNs, with or without NOS inhibitors, SOD or antioxidants; format: cell-based, human; conditions: PMA-stimulated PMNs, albumin 20 mg/mL
Description: DCFH-loaded PMNs were incubated with and without N-methyl-L-arginine (L-NMMA; 5 mM; Calbiochem, San Diego, Calif.) and heme proteins (0.3-1000 μg/mL) at 37 ° C. for 10 minutes. […] In unstimulated and LPS and TNFα -stimulated PMNs, the treatments were oxyMb, or oxyMb+L-NMMA (5 mM). […] RBC cell membranes were ruptured using a micro-ultrasonic cell disrupter, Kontes, Janke and Kukel Gmbh and CO. (Stauten, Germany). In PMA-stimulated PMNs without arginine, the treatments were oxyMb (dithionite-treated), oxyMb, chromatographically-purified oxyHb-A0 (98% ferrous), α-α […] cross-linked oxyHb (98.6% ferrous), oxyHb, or metHb. OxyMb was prepared by mixing excess sodium dithionite with Mb for 1 h and inorganic sulfur compounds were removed by dialyzing in HBSS buffer for 3 h. Percent iron in the ferric state in non-dithionite treated oxyMb or oxyHb was not assessed. Endotoxin levels in α-α Hb as determined by limulus amebocyte lysate assay was 0.125 EU/mL. […] cross-linked Hb was a gift from Walter Reed Army Institute of Research. […] Also, various concentrations of bovine liver Cu, Zn SOD (30-10,000 U/mL; 8-2640 μg/mL) and 30 μg/mL oxyMb were incubated with PMA-stimulated PMNs pretreated with and without L-NMMA. Flow cytometric measurements of oxidant-induced DCF fluorescence were performed as described above.

PMNs [2] = assay: OxyHb-FLEX bound to and internalized into PMNs (flow cytometry); format: cell-based, human; conditions: albumin 330 μM; 20 mg/mL; data not shown
Description: OxyHb bound to and internalized into PMNs was determined using fluorescein-conjugated oxyHb (Molecular Probes, Eugene, Oreg.). […] OxyHb-FLEX (1-250 μg/mL) was incubated with PMNs with and without albumin (20 mg/mL) for 10 min in a shaking water bath at 37° C. followed by a 30 min incubation with or without LPS (10 ng/mL) and TNFα (1 ng/mL) or PMA (200 nM). Flow cytometric measurements were performed as described above. To visualize intracellular levels of oxyHb-FLEX, whole cell and Z-plane images of PMNs were collected using an Axiovert 135 inverted confocal microscope (Zeiss, Thornwood, N.Y., and Atto Instruments, Rockville, Md.).

## human albumin: human albumin at levels found in extracellular space of tissues (20 mg/mL)
PMNs [1]
  reduction of oxyMb-induced DCF fluorescence: approximately 75%
PMNs [2]
  effect on oxyHb binding to PMA-activated PMNs: did not alter oxyHb binding
